# Earlier results in US20100035866A1, “NOVEL SUBSTITUTED-1, 1-DIOXO-BENZO[1,2,4]THIADIAZIN-3ONES, PREPARATION METHOD THEREOF, AND PHARMACEUTICAL COMPOSITION CONTAINING THE SAME” (KOREA RESEARCH INSTITUTE OF CHEMICAL TECHNOLOGY, priority 2006, published 2010).
# Chains of the proteins cited; added tags and fusions are not shown.
# UniProt P50406, whole entry: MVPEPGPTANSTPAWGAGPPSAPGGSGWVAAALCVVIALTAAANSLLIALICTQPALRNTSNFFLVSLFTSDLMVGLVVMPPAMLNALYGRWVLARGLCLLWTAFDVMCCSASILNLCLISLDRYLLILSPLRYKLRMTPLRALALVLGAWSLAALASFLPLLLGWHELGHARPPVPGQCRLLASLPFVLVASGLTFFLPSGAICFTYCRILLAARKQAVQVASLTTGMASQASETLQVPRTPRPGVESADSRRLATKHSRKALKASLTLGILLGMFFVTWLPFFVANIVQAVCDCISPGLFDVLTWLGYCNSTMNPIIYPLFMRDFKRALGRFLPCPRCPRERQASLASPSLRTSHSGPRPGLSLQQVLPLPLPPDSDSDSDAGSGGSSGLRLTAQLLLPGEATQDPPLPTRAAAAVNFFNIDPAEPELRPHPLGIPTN
# Legend:
# 5-HT6 receptors = 5-HT6 receptors (Homo sapiens, UniProt P50406); conditions: read-out: Ki at 5-HT6 receptors; background art; cited from earlier work
# [1] = system: other 5-HT receptors / other receptor binding sites; conditions: background art; cited from earlier work
# [2] = background art; cited from earlier work
smiles,measurement,setting,value
COc1ccc(NS(=O)(=O)c2ccc(Br)cc2)cc1N1CCN(C)CC1,Ki,5-HT6 receptors,5 nM
same,affinity for 50 other receptor/binding sites,[1],no measurable affinity
same,selectivity over 10 other 5-HT receptors,[1],> 50 fold
same,bioavailability (in words),[2],low bioavailability
same,blood clearance (in words),[2],rapid blood clearance
same,brain penetrant,[2],25%
